Test results reported in patent publication US8834920B2, “Liposome composition for targeting egfr receptor” (Alza Corporation, priority 2006, dated 2014).

System: A431 cells
Test: FACS of P190-MMB constructs or cetuximab on A431 cells
Assay type: cell-based, human
Description: In contrast, 190-MMB as the 4316 construct, binds EGFR and the presence of excess EGF promotes its binding.

## cetuximab: neutralizing anti-EGFR monoclonal antibody [reference compound]
  binding to A431: binds
